Where two headings read alike, the source gives them in different places.
Columns and labels:
[1] = target: human adenosine A1 receptor (Homo sapiens (Human), UniProt P30542); assay: CHO-hA1 [3H]DPCPX binding assay (Test A)
[2] = target: human adenosine A2a receptor (Homo sapiens (Human), UniProt P29274); assay: HEK293-hA2a [3H]-ZM241385 binding assay (Test A)

By UniProt entry, the sequences of proteins in these tests, tags left out.
UniProt P30542, whole entry: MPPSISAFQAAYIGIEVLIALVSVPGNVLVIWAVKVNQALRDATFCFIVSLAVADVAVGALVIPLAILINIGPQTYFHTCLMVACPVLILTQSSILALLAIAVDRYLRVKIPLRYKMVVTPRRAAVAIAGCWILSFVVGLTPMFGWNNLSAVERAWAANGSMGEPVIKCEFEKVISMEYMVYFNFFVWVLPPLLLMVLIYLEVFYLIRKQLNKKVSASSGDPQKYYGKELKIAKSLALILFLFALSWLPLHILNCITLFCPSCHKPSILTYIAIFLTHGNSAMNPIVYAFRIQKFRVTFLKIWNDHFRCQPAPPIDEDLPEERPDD

| pKi A2a ([2]; human A2a receptor, HEK293 membranes, 1 nM [3H]ZM241385, 25° C., 1 h) | Compound | pKi A1 [1] | pKi A2a [2] |
| --- | --- | --- | --- |
| – | Nc1nnc(-c2cc(Cl)cc(Cl)c2)c(-c2ccccc2)n1 [1(xiii), 6-(3,5-Dichlorophenyl)-5-phenyl-1,2,4-triazin-3-amine] | 7.36 | 8.40 |
| 8.59 | Cc1cc(-c2nnc(N)nc2-c2ccccc2)cc(C(F)(F)F)n1 [Example 1(ccix), 6-[2-methyl-6-(trifluoromethyl)pyridin-4-yl]-5-phenyl-1,2,4-triazin-3-amine] | – | – |
| – | Nc1nnc(-c2cccc(Cl)c2)c(-c2ccccc2)n1 [Example 1(vi), 6-(3-Chlorophenyl)-5-phenyl-1,2,4-triazin-3-amine] | 7.25 | 7.29 |

— patent US10988455B2, “1,2,4-triazine-4-amine derivatives” (Heptares Therapeutics Limited, priority 2010, dated 2021)
